Protein sequences, listed by entry. Tags and fused reporters are not part of them. Lines headed by an entry give the natural chain unless they say otherwise; changes in a name come on top.
UniProt Q12809: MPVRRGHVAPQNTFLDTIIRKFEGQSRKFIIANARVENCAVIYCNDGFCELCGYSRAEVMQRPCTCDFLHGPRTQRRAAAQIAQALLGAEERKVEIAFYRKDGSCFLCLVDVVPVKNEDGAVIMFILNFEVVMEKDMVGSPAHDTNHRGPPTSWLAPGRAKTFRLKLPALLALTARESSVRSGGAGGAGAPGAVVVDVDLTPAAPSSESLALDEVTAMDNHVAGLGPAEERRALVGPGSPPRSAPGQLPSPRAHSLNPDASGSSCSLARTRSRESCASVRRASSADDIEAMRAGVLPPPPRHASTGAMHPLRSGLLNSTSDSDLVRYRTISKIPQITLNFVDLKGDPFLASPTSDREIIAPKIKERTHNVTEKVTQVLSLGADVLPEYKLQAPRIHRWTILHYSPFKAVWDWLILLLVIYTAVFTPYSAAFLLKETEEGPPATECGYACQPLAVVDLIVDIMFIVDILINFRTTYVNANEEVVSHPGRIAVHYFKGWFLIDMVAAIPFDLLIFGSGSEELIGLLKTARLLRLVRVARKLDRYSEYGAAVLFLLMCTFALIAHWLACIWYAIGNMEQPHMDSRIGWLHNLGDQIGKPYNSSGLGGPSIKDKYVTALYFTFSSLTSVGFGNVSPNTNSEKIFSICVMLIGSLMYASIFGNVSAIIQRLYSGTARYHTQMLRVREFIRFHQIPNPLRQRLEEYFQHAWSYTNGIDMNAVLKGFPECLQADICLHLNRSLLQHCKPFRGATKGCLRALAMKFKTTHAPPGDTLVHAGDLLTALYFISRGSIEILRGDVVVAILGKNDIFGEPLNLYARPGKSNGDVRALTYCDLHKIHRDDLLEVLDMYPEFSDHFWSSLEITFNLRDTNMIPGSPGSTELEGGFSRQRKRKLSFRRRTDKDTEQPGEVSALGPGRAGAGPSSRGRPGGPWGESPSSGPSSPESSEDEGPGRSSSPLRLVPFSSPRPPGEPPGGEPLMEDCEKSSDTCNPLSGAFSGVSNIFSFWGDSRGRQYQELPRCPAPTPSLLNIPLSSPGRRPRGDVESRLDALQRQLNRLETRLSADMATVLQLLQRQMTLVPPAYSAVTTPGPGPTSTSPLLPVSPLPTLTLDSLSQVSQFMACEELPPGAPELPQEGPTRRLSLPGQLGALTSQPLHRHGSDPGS

According to ChEMBL document CHEMBL5321226, “Structure-directed identification of pyridine-2-methylamine derivatives as MmpL3 inhibitors for use as antitubercular agents” (Eur J Med Chem, 2023):

Target: Voltage-gated inwardly rectifying potassium channel KCNH2 (Homo sapiens, UniProt Q12809)
Assay: Inhibition of human ERG at 300 nM by patch-clamp electrophysiology assay
Type: toxicity
Conditions: 0.3 µM

## COc1cc(N)c(Cl)cc1C(=O)N[C@H]1CCN(CCCOc2ccc(F)cc2)C[C@H]1OC [REL-CISAPRIDE]
  inhibition (INH): 97.2%
